Assay results taken from patent publication US20080226596A1, “Therapeutic compositions and methods useful in treating hepatitis” (priority 2006, published 2008).

Tested on: WM9 cells
Assay: WM9 melanoma cell growth, MTT assay
Assay type: cell-based, human
Conditions: day 6
Experimental: For cell proliferation assays, cells were grown in 10% FCS culture medium containing various amounts of IFNs and/or sodium stibogluconate in 96 well plates and cultured at 37° C. for 3 or 6 days as indicated. The numbers of viable cells in proliferation assays were determined by MTT assays as described in Phatak et al., J. Immunol. 167, 3391 (2001).
Median effect analysis (Chou et al., Adv. Enzyme Regul. 22, 27 (1984)), which provides the most general form of studying the interactions between drugs, was utilized to analyze the interaction between sodium stibogluconate and IFN-alpha or IFN-beta. Dose response curves were generated for each drug alone, and also the combinations. Median effect plots were generated for IFNs alone, sodium stibogluconate alone, and the combination. The combination index (CI) was determined and plotted vs. fraction affected (FA). Data were analyzed in both modes, mutually exclusive and mutually nonexclusive. The interaction between two mutually nonexclusive drugs is described by the Equation CI=D1/Dx1+D2/Dx2+D1D2/Dx1Dx2, where Dx1 and Dx2 are the doses of drug 1 and drug 2 that are required to inhibit growth x %. […] When CI<1, drugs are synergistic, when CI=1, drugs are additive, and when CI>1, drugs are antagonistic. […]

B1: IFN-beta: Recombinant human IFN-beta (protein, UniProt P01574 22-187, looked up)
Interferon beta: MSYNLLGFLQRSSNFQCQKLLWQLNGRLEYCLKDRMNFDIPEEIKQLQQFQKEDAALTIYEMLQNIFAIFRQDSSSTGWNETIVENLLANVYHQINHLKTVLEEKLEKEDFTRGKLMSSLHLKRYYGRILHYLKAKEYSHCAWTIVRVEILRNFYFINRLTGYLRN
Question: For B1, which “growth of WM9 cells with IFN alone” value is on record?
Answer: The value was “more potently”.
